The target in the test is Human BACE-1 (Homo sapiens, UniProt P56817). The test is described as follows: Test 1: Inhibition of Human BACE-1. It is filed as biochemical.

Protein sequences, listed by entry. Tags and fused reporters are not part of them. Residues count along the entry.
UniProt P56817, 46-457 limits assumed: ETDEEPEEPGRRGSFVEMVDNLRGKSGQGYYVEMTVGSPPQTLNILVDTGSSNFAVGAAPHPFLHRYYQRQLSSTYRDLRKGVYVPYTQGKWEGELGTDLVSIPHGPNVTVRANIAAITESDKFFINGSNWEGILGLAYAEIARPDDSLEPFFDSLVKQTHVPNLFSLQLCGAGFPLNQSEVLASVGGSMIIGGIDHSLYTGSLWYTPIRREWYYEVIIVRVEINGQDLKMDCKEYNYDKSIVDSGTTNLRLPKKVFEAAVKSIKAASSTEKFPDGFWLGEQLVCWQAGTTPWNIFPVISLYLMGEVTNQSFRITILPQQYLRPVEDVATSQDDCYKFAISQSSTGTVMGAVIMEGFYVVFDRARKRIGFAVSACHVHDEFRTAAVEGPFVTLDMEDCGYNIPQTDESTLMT

Molecules are shown by their SMILES. Structures can show the parent of a compound that is named as a salt.

A word on the IC50: it is the point on the concentration scale where inhibition reaches its midpoint. Low readings indicate higher potency, high ones lower potency. In the case of `C[C@@]1(c2cc(NC(=O)c3ncc(OC(F)F)cc3Cl)ccc2F)CO[C@@](C)(C(F)(F)F)C(N)=N1` [Example 19, 3-Chloro-5-difluoromethoxy-pyridine-2-carboxylic acid [3-((3R,6R)-5-amino-3,6-dimethyl-6-trifluoromethyl-3,6-dihydro-2H-[1,4]oxazin-3-yl)-4-fluoro-phenyl]-amide hydrochloride], inhibition was half-maximal at 16 nM (IC50).
For `C[C@@]1(c2cc(NC(=O)c3ncc(C#N)cc3N)ccc2F)CO[C@@](C)(C(F)(F)F)C(N)=N1` [Example 26, 3-Amino-5-cyano-pyridine-2-carboxylic acid [3-((3R,6R)-5-amino-3,6-dimethyl-6-trifluoromethyl-3,6-dihydro-2H-[1,4]oxazin-3-yl)-4-fluoro-phenyl]-amide], the 50% inhibitory concentration (IC50) is 5 nM.

The record behind these values is patent publication US20130281449A1, “Oxazine Derivatives and their Use in the Treatment of Neurological Disorders” (NOVARTIS AG, priority 2011, published 2013).
